Measurements as given in patent US20250064809A1, “Inhibitors of Mutant RET Kinases for use in Treating Cancer” (Stemline Therapeutics, Inc., priority 2021, published 2025).

Assays:
Assay in all cases: In vitro cell viability assay (CellTiter-Glo)
Format in all cases: cell-based
Conditions in all cases: Mus musculus, BaF3, 72 h
Ba/F3 KIF5B-RET = tested on: Ba/F3 KIF5B-RET
Ba/F3 KIF5B-RET-G810R = tested on: Ba/F3 KIF5B-RET-G810R
Ba/F3 KIF5B-RET-G810C = tested on: Ba/F3 KIF5B-RET-G810C
Ba/F3 KIF5B-RET-G810S = tested on: Ba/F3 KIF5B-RET-G810S

Q: For `CNC(=O)c1ccc2c(Cl)c(-c3nn(C(C)(C)C)c4ncnc(N)c34)[nH]c2c1` [Compound A], which IC50 (Ba/F3 KIF5B-RET) is on record?
A: 20 nM

Q: And the IC50 (Ba/F3 KIF5B-RET-G810R)?
A: 37.4 nM

Q: And the IC50 (Ba/F3 KIF5B-RET-G810C)?
A: 42.4 nM

Q: And the IC50 (Ba/F3 KIF5B-RET-G810S)?
A: 28.7 nM
